Experimental data as given in patent publication US7488730B2, “N-(1,2,3,4-tetrahydronaphthalen-1-yl)-4-phenyl-1-piperazinealkylamide derivatives, and therapeutic use thereof as 5-HT7 receptor ligands” (Universita Degli Studi Di Bari, priority 2005, dated 2009).

Sequences of proteins named here, by UniProt entry; tags and fusion partners are left off.
UniProt P19327, whole entry: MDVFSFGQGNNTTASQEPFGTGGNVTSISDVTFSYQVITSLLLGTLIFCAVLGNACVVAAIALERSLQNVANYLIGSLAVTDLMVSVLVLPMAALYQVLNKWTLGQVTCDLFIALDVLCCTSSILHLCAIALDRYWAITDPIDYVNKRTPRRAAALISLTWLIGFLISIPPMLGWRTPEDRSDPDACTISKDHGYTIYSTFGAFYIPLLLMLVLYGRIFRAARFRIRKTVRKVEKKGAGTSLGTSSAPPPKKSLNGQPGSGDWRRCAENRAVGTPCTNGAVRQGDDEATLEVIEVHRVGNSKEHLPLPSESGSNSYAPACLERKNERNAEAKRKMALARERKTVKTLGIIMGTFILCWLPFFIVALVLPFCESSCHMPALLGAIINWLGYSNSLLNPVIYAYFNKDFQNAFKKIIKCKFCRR

Target: 5-HT1A receptors (Rattus norvegicus, UniProt P19327)
Conditions: read-out: Ki, nM 5-HT1A; [3H]-8-OH-DPAT, rat hippocampal membranes

- Ki: 253 ± 25 nM
Compound: COc1ccccc1N1CCN(CCC(=O)NC2CCCc3c(OC)cccc32)CC1 (stereo not shown) [Compound 6]
